Results taken from article PMC9945182 (Chemical Research in Toxicology, 2023).

Key:
FMO1 = target: T1, FMO1 (Homo sapiens, UniProt Q01740); assay type: biochemical; settings: up to 50 μM, potential inhibitor control
T1 sequence (Q01740 1-532): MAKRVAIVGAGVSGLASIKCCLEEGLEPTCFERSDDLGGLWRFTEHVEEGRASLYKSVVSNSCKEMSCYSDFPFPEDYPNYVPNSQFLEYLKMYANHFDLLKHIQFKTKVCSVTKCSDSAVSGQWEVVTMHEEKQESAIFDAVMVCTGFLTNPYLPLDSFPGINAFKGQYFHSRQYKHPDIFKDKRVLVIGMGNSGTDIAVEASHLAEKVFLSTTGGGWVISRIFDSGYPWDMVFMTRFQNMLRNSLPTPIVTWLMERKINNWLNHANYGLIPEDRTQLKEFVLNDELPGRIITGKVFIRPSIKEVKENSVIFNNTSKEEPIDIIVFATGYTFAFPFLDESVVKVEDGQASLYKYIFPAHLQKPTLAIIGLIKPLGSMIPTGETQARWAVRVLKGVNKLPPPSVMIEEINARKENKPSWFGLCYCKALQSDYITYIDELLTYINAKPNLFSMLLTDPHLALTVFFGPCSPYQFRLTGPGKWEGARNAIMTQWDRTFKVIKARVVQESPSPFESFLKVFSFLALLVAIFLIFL

FMO3 = target: T2, FMO3 (Homo sapiens, UniProt P31513); assay type: biochemical; settings: up to 50 μM, potential inhibitor control
T2 sequence (P31513 1-532): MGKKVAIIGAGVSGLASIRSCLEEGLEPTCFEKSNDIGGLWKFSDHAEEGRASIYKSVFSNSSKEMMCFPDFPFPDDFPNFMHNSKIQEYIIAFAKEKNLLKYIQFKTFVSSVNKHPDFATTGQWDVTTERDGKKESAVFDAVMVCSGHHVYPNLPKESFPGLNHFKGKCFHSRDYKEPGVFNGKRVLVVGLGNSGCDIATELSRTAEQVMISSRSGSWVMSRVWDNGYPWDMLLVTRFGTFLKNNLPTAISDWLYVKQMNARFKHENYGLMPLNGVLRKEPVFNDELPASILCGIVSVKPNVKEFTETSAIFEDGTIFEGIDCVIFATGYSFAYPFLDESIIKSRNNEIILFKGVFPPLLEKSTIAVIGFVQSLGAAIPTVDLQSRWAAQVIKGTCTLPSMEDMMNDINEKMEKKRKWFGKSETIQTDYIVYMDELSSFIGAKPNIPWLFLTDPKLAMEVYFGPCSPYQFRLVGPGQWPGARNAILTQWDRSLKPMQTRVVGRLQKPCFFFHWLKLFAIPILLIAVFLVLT

- inhibition of FMO activities (FMO1): no significant inhibition
- inhibition of FMO activities (FMO3): no significant inhibition
Structure (SMILES): CN(C)CCCOc1nn(Cc2ccccc2)c2ccccc12 [benzydamine]
